Protein sequences, listed by entry. Tags and fused reporters are not part of them. Lines headed by an entry give the natural chain unless they say otherwise; changes in a name come on top.
UniProt P05067: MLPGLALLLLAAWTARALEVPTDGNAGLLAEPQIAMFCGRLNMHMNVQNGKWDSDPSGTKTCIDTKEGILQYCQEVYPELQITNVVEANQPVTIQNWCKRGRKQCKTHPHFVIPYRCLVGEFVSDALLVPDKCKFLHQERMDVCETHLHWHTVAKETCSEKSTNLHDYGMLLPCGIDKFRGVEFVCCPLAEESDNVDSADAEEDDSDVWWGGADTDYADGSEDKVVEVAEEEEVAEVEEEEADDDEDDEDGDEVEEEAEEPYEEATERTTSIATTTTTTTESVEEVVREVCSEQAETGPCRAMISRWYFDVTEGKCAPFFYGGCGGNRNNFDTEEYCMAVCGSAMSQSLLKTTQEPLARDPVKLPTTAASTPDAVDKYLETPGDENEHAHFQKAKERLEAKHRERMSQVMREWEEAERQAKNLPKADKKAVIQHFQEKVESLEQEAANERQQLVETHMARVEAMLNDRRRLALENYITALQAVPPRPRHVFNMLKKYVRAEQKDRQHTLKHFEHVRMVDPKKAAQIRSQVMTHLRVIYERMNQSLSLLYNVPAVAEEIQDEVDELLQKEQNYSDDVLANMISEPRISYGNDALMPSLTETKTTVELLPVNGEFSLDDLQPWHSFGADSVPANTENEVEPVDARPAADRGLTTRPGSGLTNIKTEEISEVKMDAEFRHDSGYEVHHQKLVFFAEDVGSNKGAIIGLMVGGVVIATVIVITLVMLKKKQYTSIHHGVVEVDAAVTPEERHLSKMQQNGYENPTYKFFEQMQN

In patent publication US11766420B2 (priority 2015, dated 2023):

Legend:
C57BL/6 mice = assay: Toxicity of PAO oral gavage on mice
APP/PS1 mice = assay: Novel object recognition test (NOR) in APP/PS1 mice; details: 18 month-age APP/PS1 mice, 0.3 mg/kg gavage, 8 months, 10 mice per group; same in water group
[1] = test system: dissected Drosophila third instar larvae; assay: Toxicity of PAO on dissected Drosophila third instar larvae; details: Schneider's medium, 25° C. overnight
wild type flies = assay: Toxicity of PAO on living flies (fly food from embryonic stage)
Aβ42 = Aβ42 (Homo sapiens, UniProt P05067); assay: Liposome experiment: Aβ42 aggregation/oligomerization (immunoblot)

Compound | Survival after gavage at 2.0 mg/kg (C57BL/6 mice; once a day Monday through Friday, two consecutive weeks, five mice) | Survival after gavage at 4.5 mg/kg (C57BL/6 mice; once a day for five consecutive days, five mice) | Survival after gavage at 18, 10 and 6 mg/kg (C57BL/6 mice; two mice for each dose level) | Deaths during prolonged administration (APP/PS1 mice) | Concentration at which salivary gland cells and CNS neurons turned white (damage) [1] | Concentration without damage to salivary gland cells and CNS neurons [1] | Concentration in fly food that neither changed the eclosion rate nor altered the climbing ability (wild type flies) | Facilitation effect on Aβ42 aggregation in liposomes compared with PI and PIP2 (Aβ42) | Facilitation effect on oligomerization of Aβ42 at 80 jμM (Aβ42; 80 jμM versus 40 jμM) | Oligomerization of Aβ42 in liposome (Aβ42; different concentrations)
O=[As]c1ccccc1 (stereo not shown) | all five mice survived | four mice out of five survived | All mice were found dead on the second day | two mice were dead in each group | ≥ 300 nM | ≤ 150 nM | ≤ 200000 nM | – | – | –
phosphatidylinositol 4-phosphate | – | – | – | – | – | – | – | significantly stronger than PI and PIP2 | decreases as compared to a concentration of 40 jμM | facilitates the oligomerization of Aβ42 in liposome in a concentration dependent manner
